Results as given in patent US20020169157A1, “Selective protein tyrosine phosphatatase inhibitors” (priority 2000, published 2002).

Key:
[1] = target: T1, protein tyrosine phosphatase 1B (PTP1B, amino acid residues 1-321) (Homo sapiens, UniProt P18031); experiment: Inhibition constant determination for protein tyrosine phosphatase 1B (pNPP hydrolysis); assay type: biochemical; details: competitive Ki, pNPP substrate, +/− S.D.; read-out: Phosphatase Inhibition Constants (Kic) PTP1B
T1 construct: PTP1B, amino acid residues 1-321; made in house; host or cells: E. coli BL21 (DE3)
T1 sequence (P18031 1-321): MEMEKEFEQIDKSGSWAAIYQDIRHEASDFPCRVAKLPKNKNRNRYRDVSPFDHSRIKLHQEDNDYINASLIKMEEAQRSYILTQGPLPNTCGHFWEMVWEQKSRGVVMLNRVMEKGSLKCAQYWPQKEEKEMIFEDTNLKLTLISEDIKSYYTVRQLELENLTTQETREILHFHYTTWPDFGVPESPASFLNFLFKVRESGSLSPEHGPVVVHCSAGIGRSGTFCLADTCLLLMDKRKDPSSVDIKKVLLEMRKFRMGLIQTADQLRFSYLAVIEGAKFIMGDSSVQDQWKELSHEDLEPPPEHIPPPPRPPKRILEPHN

TC-PTP = target: T2, TC-PTP (Homo sapiens, UniProt P17706); experiment: Inhibition constant determination, selectivity panel: TCPTP (pNPP hydrolysis); assay type: biochemical; details: from Kic values of Table 1
T2 construct: chromatography of TCPTP (amino acid residues 1-283) was on Q-Sepharose-FF
T2 sequence (P17706 1-283): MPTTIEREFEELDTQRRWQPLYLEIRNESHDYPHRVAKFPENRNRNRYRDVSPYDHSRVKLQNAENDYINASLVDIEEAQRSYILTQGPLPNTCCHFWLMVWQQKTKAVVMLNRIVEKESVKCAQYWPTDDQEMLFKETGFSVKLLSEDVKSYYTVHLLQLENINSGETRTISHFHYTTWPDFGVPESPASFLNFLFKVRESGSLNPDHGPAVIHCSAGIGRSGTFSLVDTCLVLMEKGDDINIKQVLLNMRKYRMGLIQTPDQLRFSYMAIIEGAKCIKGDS

Compound | Ki [1] [nM] | selective for PTP1B over TCPTP (TC-PTP)
CCC(CC(=O)O)N(C(=O)C(=O)O)c1ccc(C[C@H](NC(=O)OC(C)(C)C)C(=O)NCCCCOc2cccc(O)c2C(=O)OC)cc1 (stereo partly drawn) [Example 43, Methyl 2-(4-{[N-(tert-butoxycarbonyl)-4-{(carboxycarbonyl)[1-(carboxymethyl)propyl]amino}-L-phenylalanyl]amino}butoxy)-6-hydroxybenzoate] | 1300 | –
CCc1cc(C[C@H](NC(C)=O)C(=O)NCCCCOc2cccc(O)c2C(=O)OC)ccc1N(C(=O)C(=O)O)c1ccccc1C(=O)O [Example 13, Methyl 2-{4-[(N-acetyl-4-[(carboxycarbonyl)(2-carboxyphenyl)amino]-3-ethylphenylalanyl)amino]butoxy}-6-hydroxybenzoate] | 16 | at least 3 fold
